# High-throughput results: PubChem BioAssay, Broad Institute
# FGF22 binding = shifts melting point of recombinant human FGF22. 340,000 compounds, 1.5% hits. Q9HCT0. recombinant FGF22 thermal shift, SYPRO orange fluorescence; percent of sucrose octasulfate shift, DMSO zero. activity (Tm shift, normalised), % at 9.99 µM;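 active = mean Tm shift, scaled 0 neutral to 100 positive control, at about 1.3% or above, every replicate too, limit read from the data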
# S100A4 inh HTS = S100A4-myosin IIA interaction inhibition; inhibition, % at 10.7 µM; S100A4/TAMRA-MyoIIA peptide fluorescence polarization; 360,000 compounds, 0.14% hits; AID 652163;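 active = mean inhibition of at least 70% across replicates, with every replicate also reaching that level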
#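 incubation = readout 5 min after mixing, signal stable up to 60 min | system = S100A4 monomer protein | buffer or medium = HEPES pH 7.2 with CaCl2, KCl, NaCl, DTT, Triton | benchmarks = neutral control DMSO, positive control TFP | also added = fluorescent myosin IIA peptide, 5 nM | compound dosing = one concentration per compound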
# ERp5 inh = blocks human ERp5 reductase activity on insulin | Q15084 | ERp5 insulin aggregation, absorbance 650 nm, 90 min | inhibition, % at 9.99 µM | 350,000 compounds, 0.05% hits;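 active = mean replicate inhibition above about 25%, with every replicate also reaching it, limit read from the data, passing the limit was not always enough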
# UUG fidelity = modulators of yeast start codon fidelity, primary screen, whole organism, S. cerevisiae, single point, plate reader; S. cerevisiae UUG-firefly luciferase reporter, luminescence/redox ratio; activity score, % at 18.7 µM; actives 0.13% (n = 350,000); AID 602363, 2012;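 active = replicate mean at a twofold rise or more, about +100% in these data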;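 also: firefly luciferase made from a UUG start codon reports start codon fidelity; reporter light over untreated wells divided by growth signal over untreated wells; some hits fall short of that in this replicate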
# SIRT5 inh = blocks human SIRT5 desuccinylation of peptide; AID 652115; inhibition, % at 15 µM; Q9NXA8; Purified SirT5, succinyl-peptide AMC, trypsin-coupled fluorescence; 330,000 compounds, 1.1% hits; in the data active = inhibition above about 15%
# PDI turbidity = inhibitors of human protein disulfide isomerase; inhibition, % at 10 µM; 350,000 compounds, 0.052% hits; PDI insulin aggregation turbidity, A650, 90 min; P07237;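 active = mean inhibition across replicates of 30% or more, whatever share of single replicates reach that level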
# Hits are given with their value; . = inactive; / = no result. In the library only some 2.2% were active in any assay of this set; here they are far more common.
SMILES,FGF22 binding,S100A4 inh HTS,ERp5 inh,UUG fidelity,SIRT5 inh,PDI turbidity
Cc1[nH]n(-c2ccccc2)c(=O)c1C(C[N+](=O)[O-])c1ccc(F)cc1 (stereo unspecified),/,/,/,/,/,.
COCC(=O)Nc1ccc2c(c1)C(=O)N(C)[C@H]1CC[C@H](CC(=O)OC)O[C@@H]1CO2,/,.,.,/,.,/
CC(=O)OC(C)=O,.,78.9,.,.,/,/
CO[C@H]1CN(C)C(=O)c2cc(NC(=O)CC(F)(F)F)ccc2OC[C@H](C)NC[C@@H]1C,/,.,.,/,.,/
CC(C)NC(=O)N(C)C[C@@H]1Oc2cc(C#C[C@H](C)O)ccc2S(=O)(=O)N([C@@H](C)CO)C[C@@H]1C,.,.,.,/,.,/
O=C(Nc1cccc(Cl)c1)OCCOCCOC(=O)Nc1cccc(Cl)c1,.,.,.,.,.,.
CCCOc1ccc(CNC(=S)Nc2ccccc2)cc1Cl,39.6,.,.,.,.,.
O=C(Nc1ccccc1)OCCOc1ccc(Cl)cc1Cl,43.9,.,.,.,/,.
CO[C@@H]1CN(C)C(=O)c2cc(NC(=O)CC(F)(F)F)ccc2OC[C@@H](C)N(S(=O)(=O)c2cn(C)cn2)C[C@H]1C,.,.,.,.,/,/
COCC(=O)N1CCC2(CC1)CN(C(=O)COC)[C@@H](CO)c1c2c2ccc(OC)cc2n1C,.,/,/,/,/,/
N#C[C@H]1[C@H](c2ccc(C#Cc3ccccc3F)cc2)[C@H](CO)N1C(=O)C1CCCC1,/,.,.,/,/,/
COc1ccccc1-c1cn(CC[C@@H]2CC[C@H](NC(=O)C3CCCC3)[C@@H](CO)O2)nn1,/,.,.,/,.,/
Cc1ccc(S(=O)(=O)c2ccc(Oc3cccc(C)c3)cc2)cc1,/,/,/,.,/,31.6
COc1ccc2c(c1OC)CN(C)CCc1cc3c(cc1C(=O)C2)OCO3,42.9,.,.,/,.,.
COc1cc2c(cc1OC)C(=O)Cc1ccc3c(c1CN(C)CC2)OCO3,.,.,.,.,.,/
COc1ccc(-c2ccccc2)cc1NC(=O)c1cccs1,.,.,.,.,16.4,.
COc1cc(NC(=O)c2cccs2)c(OC)cc1NC(=O)c1cccs1,/,/,/,.,/,.
COc1ccc(C(=O)Nc2ccc(NC(=O)c3cccs3)cc2)cc1Cl,43.1,.,.,/,.,.
COc1ccc(C(=O)Nc2ccc(NC(=O)c3cccs3)c(OC)c2)cc1Cl,.,.,.,.,.,.
COc1ccc(-c2ccccc2)cc1NC(=O)C1(C)CCN1C(=O)C(C)C (stereo unspecified),.,.,.,/,22.0,.
O=C(C[C@@H]1CC[C@@H](NC(=O)c2ccccn2)[C@@H](CO)O1)NCc1cc(F)cc(F)c1,.,.,.,.,.,/
Cc1ccc(S(=O)(=O)Nc2ccc3c(c2)C(=O)N([C@@H](C)CO)C[C@@H](C)[C@@H](CN(C)CC2CCCCC2)OCCCC[C@H](C)O3)cc1,.,.,.,.,16.9,/
C[C@@H]1CCCCO[C@@H](CN(C)CC2CCCCC2)[C@@H](C)CN([C@@H](C)CO)C(=O)c2cc(NS(=O)(=O)c3ccc(F)cc3)ccc2O1,.,.,.,.,19.4,/
CN(C(=O)c1cccc(NC(=O)Cc2ccc(NC(=O)C3CCN(C(=O)C4CCC4)CC3)cc2)c1)C1CCCCC1,.,.,.,.,.,.
O=C(Cc1ccc(NC(=O)C2CCCN(C(=O)C3CC3)C2)cc1)Nc1cccc(C(=O)N2CCCCC2)c1 (stereo unspecified),.,.,32.1,.,.,.
CN(C(=O)c1cccc(NC(=O)Cc2ccc(NC(=O)C3CCN(C(=O)C4CCCCC4)CC3)cc2)c1)C1CCCCC1,.,.,.,.,25.1,.
CC(=O)Nc1cc2c(cc1Cl)-c1ccc(F)cc1C2O (stereo unspecified),43.6,.,.,.,/,.
O=C(C[C@H]1CC[C@@H]2[C@H](COC[C@@H](O)CN2C(=O)c2ccncc2)O1)NC1CCC1,.,.,.,/,.,/
COc1ccc(C(C(=O)NC(C)(C)C)N(CCO)C(=O)CCC(=O)Nc2cc(C)on2)cc1 (stereo unspecified),43.0,.,.,.,.,.
COc1ccc(C(C(=O)NC(C)(C)C)N(CCc2ccccc2)C(=O)CCC(=O)Nc2cc(C)on2)cc1 (stereo unspecified),.,.,.,.,.,.
